This assay deals with Cannabinoid receptor 1 (Homo sapiens, UniProt P21554). The experiment in a line: biochemical. Type of assay: cell-based, HEK293.

Sequences of proteins named here, by UniProt entry; tags and fusion partners are left off.
UniProt P21554, whole entry: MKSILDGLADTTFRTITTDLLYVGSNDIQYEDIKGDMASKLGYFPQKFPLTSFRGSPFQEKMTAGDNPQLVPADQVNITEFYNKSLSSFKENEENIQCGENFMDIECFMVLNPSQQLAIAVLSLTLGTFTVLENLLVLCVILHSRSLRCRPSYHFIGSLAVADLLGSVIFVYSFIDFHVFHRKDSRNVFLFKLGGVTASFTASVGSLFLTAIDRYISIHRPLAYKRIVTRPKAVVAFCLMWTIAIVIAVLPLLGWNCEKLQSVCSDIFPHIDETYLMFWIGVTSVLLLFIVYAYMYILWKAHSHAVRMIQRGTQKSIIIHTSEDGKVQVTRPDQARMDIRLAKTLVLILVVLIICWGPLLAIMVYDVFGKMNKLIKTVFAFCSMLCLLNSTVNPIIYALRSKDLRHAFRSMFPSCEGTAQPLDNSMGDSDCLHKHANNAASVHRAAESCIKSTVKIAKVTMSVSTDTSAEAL

What is called Ki is the equilibrium dissociation constant of an inhibitor or competing ligand from its target. A high value points to weaker binding. `Cc1ccc(Cn2nc(C(=O)N[C@@H]3C(C)(C)[C@@H]4CC[C@@]3(C)C4)cc2-c2ccc(Cl)c(C)c2)cc1` [SR-144528] registered a Ki of more than 5 µM.

Values taken from ChEMBL document CHEMBL1140571, “New 1,8-naphthyridine and quinoline derivatives as CB2 selective agonists” (Bioorg Med Chem Lett, 2007).
